Data from patent US10976306B2, “Protein degradation inducing tag and usage thereof” (Tokyo University of Science Foundation, priority 2015, dated 2021).

Chains of the proteins cited; added tags and fusions are not shown. Lines headed by an entry give the natural chain unless they say otherwise; changes in a name come on top.
UniProt Q99436: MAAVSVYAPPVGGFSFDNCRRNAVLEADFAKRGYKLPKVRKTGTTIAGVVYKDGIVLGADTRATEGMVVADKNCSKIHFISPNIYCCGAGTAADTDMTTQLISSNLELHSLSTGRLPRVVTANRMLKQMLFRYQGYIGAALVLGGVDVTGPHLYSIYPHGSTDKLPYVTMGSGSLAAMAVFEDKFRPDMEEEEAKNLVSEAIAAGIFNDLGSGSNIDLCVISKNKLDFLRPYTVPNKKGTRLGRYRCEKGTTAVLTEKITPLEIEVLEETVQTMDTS
UniProt P28074: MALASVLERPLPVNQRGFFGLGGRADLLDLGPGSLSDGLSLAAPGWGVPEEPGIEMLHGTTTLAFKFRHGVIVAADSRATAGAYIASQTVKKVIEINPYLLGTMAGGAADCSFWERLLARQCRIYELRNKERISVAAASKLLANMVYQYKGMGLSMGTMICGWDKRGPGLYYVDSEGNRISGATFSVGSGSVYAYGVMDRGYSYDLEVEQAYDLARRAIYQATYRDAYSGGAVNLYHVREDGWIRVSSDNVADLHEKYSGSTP

Columns and labels:
[1] = biological target: β2 (trypsin-like activity) of 20S proteasome (Homo sapiens, UniProt Q99436); assay: 20S proteasome inhibitory activity, AMC fluorescent substrate Bz-VGR-AMC; conditions: FIGS. 4B, 7B; compared with the original proteasome inhibitor alone
[2] = biological target: β5 (chymotrypsin-like activity) of 20S proteasome (Homo sapiens, UniProt P28074); assay: 20S proteasome inhibitory activity, AMC fluorescent substrate Suc-LLVY-AMC

Row | IC50 [2] [nM] | Structure (SMILES) | inhibitory activity against β2 [1]
1 | – | CC(C)C[C@H](NC(=O)[C@H](Cc1ccccc1)NC(=O)c1cnccn1)B(O)O [Bortezomib] | not significantly inhibited
2 | 43 | CC(C)C[C@H](NC(=O)CNC(=O)c1cc(Cl)ccc1Cl)B(O)O [MLN2238] | –
